In patent US20030166007A1, “Chemical proteomics” (MDS Proteomics Inc., priority 2002, published 2003):
Like-named read-outs stand apart in the source and are kept apart here.

Amino acid sequences for entries named in this document (tags omitted). A change or cut given only in a name is not applied to a line headed by its entry.
UniProt P22102: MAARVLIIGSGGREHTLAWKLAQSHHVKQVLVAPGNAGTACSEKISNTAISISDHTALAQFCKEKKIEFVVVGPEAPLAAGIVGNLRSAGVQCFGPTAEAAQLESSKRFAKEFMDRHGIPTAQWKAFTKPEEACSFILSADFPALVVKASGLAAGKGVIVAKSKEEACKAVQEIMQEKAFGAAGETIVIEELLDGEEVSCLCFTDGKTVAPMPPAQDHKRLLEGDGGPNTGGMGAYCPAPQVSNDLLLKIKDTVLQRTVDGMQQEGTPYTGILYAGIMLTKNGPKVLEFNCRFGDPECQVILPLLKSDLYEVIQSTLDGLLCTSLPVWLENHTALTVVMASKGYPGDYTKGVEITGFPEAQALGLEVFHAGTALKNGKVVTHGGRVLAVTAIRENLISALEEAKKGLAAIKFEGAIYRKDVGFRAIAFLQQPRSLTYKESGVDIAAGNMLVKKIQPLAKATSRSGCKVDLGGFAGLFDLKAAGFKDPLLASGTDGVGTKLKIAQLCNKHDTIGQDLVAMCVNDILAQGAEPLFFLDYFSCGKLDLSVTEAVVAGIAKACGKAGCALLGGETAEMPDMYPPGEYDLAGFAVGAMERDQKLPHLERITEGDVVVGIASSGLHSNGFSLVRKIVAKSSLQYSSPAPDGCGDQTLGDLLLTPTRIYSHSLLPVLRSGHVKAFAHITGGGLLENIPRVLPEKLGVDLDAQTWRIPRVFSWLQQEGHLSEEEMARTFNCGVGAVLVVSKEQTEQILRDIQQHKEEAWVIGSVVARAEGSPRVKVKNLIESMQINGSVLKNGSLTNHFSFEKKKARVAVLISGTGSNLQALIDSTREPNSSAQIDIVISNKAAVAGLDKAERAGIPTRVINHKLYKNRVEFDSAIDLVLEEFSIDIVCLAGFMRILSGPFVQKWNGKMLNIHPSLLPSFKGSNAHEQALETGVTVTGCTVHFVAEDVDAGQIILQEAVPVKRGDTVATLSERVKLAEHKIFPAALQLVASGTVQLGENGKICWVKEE

Columns and labels:
GARS = GARS (Homo sapiens, UniProt P22102); conditions: Methotrexate attached to magnetic PEGA support, HEK 293 lysate
[1] = molecular target: aminoimidazole ribonucleotide synthetase (AIRS) (Homo sapiens, UniProt P22102); conditions: HEK 293 lysate; part of trifunctional GARS-AIRS-GART
[2] = molecular target: Glycinamideribonucleotide transformylase (GART) (Homo sapiens, UniProt P22102); conditions: HEK 293 lysate, eluted with 10 mM Methotrexate
GART = GART (Homo sapiens, UniProt P22102); conditions: Methotrexate attached to magnetic PEGA support, HEK 293 lysate

CN(Cc1cnc2nc(N)nc(N)c2n1)c1ccc(C(=O)N[C@@H](CCC(=O)O)C(=O)O)cc1 [Methotrexate]
Protein captured and identified (GARS): identified
Association with the Methotrexate matrix [1]: binding occurs through the GART domain
Protein identified by Mass Spec.; Known Folate targets [2]: direct interaction between GART and the Methotrexate ligand
Protein identified by Mass Spec.; Known Folate targets ([2]; listed as MTX): ✓
Protein captured and identified (GART): identified
